Measurements from patent US9334290B2, “Substituted tetrahydrocarbazole and carbazole carboxamide compounds” (Bristol-Myers Squibb Company, priority 2013, dated 2016).

Amino acid sequences for entries named in this document (tags omitted). A change or cut given only in a name is not applied to a line headed by its entry.
UniProt O60674: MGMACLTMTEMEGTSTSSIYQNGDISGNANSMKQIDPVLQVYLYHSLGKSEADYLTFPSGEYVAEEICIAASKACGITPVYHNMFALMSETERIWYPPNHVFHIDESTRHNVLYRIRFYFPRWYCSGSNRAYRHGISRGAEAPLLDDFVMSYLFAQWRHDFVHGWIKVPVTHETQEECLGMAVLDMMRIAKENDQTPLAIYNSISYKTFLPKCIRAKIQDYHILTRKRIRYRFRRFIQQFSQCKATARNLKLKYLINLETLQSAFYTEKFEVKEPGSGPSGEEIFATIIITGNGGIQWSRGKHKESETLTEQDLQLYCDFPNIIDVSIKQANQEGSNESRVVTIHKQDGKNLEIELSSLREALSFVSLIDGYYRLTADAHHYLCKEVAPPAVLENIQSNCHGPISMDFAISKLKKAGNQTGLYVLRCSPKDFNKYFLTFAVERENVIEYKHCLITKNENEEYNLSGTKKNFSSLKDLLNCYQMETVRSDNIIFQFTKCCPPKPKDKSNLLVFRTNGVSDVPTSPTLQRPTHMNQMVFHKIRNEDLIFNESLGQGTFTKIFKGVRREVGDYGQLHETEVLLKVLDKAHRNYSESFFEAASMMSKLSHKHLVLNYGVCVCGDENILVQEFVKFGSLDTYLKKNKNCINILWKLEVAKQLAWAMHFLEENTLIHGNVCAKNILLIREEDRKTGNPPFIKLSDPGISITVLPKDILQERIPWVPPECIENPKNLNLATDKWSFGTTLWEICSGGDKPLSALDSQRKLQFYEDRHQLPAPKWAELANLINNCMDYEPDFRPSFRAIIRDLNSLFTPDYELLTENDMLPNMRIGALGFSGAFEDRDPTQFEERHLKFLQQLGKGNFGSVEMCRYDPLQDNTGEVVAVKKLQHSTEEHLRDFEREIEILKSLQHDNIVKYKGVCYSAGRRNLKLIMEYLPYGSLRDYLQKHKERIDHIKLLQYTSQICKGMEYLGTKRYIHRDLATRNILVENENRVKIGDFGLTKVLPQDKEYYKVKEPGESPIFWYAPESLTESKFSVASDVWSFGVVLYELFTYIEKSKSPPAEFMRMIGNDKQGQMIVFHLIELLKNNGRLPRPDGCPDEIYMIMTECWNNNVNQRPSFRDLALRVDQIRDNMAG
UniProt Q06187: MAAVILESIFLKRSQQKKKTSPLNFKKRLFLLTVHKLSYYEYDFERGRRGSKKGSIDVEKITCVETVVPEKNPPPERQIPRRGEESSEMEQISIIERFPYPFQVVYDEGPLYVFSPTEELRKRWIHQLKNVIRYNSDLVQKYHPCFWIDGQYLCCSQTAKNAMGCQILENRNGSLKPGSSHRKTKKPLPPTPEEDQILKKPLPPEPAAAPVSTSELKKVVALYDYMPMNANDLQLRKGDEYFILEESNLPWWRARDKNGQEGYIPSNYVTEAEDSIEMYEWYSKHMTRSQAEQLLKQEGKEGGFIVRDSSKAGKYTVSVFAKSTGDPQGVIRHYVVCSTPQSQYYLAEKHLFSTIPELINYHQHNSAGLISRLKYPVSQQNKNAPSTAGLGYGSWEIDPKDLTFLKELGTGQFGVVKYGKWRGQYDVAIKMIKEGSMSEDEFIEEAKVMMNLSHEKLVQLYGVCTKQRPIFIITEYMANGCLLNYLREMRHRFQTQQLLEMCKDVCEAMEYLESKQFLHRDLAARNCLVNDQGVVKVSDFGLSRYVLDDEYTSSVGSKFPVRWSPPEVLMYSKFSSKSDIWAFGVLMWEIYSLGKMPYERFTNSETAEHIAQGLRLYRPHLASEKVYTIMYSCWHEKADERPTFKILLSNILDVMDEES

Assays:
Jak2 tyrosine kinase = Jak2 tyrosine kinase (Homo sapiens (Human), UniProt O60674); test: Jak2 tyrosine kinase assay; type: biochemical; details: for Ratio of Jak2/Btk IC50 values: selectivity of Btk over Jak2
human recombinant Btk = human recombinant Btk (Homo sapiens (Human), UniProt Q06187); test: Human Recombinant Btk enzyme assay; type: biochemical

SMILES | Ratio of Jak2/Btk IC50 values (Jak2 tyrosine kinase) | IC50 (human recombinant Btk) | IC50 (Jak2 tyrosine kinase)
Cc1c(-c2c(Cl)cc(C(N)=O)c3[nH]c4c(c23)CC[C@H](C(C)(C)O)C4)cccc1-n1c(=O)c2cccc(F)c2n(C)c1=O (atropisomer, axis not shown) [Example 26, 6-Chloro-5-(R)-(3-(S)-(8-fluoro-1-methyl-2,4-dioxo-1,2-dihydroquinazolin-3(4H)-yl)-2-methylphenyl)-2-(S)-(2-hydroxypropan-2-yl)-2,3,4,9-tetrahydro-1H-carbazole-8-carboxamide] | 6300 | 1.2 nM | –
Cc1c(-c2c(F)cc(C(N)=O)c3[nH]c4c(c23)CC[C@H](C(C)(C)O)C4)cccc1-n1c(=O)cc2c(Cl)cccn2c1=O (single isomer, unassigned) [Example 65] | – | 0.46 nM | –
Cc1c(-c2c(Cl)cc(C(N)=O)c3[nH]c4c(c23)CC[C@H](C(C)(C)O)C4)cccc1-n1c(=O)c2cccc(F)c2n(C)c1=O [Example 25, 6-Chloro-5-(3-(8-fluoro-1-methyl-2,4-dioxo-1,2-dihydroquinazolin-3(4H)-yl)-2-methylphenyl)-2-(S)-(2-hydroxypropan-2-yl)-2,3,4,9-tetrahydro-1H-carbazole-8-carboxamide] | – | 0.9 nM | –
Cc1c(-c2c(F)cc(C(N)=O)c3[nH]c4c(c23)CC[C@H](C(C)(C)O)C4)cccc1-n1c(=O)cc2c(Cl)cccn2c1=O (single isomer, unassigned) [Example 64] | – | 0.34 nM | –

Now from value to compound:

Ratio of Jak2/Btk IC50 values (Jak2 tyrosine kinase) | IC50 (human recombinant Btk) | IC50 (Jak2 tyrosine kinase) | SMILES
7000 | – | – | Cc1c(-c2c(C#N)cc(C(N)=O)c3[nH]c4cc(C(C)(C)O)ccc4c23)cccc1-n1c(=O)c2cccc(F)c2n(C)c1=O (single isomer, unassigned) [Example 16]
>910 | – | – | Cc1c(-c2c(F)cc(C(N)=O)c3[nH]c4c(c23)CC[C@@H](C(C)(C)O)C4)cccc1-n1c(=O)c2cccc(F)c2n(C)c1=O (atropisomer, axis not shown) [Example 27, 6-Fluoro-5-(R)-(3-(S)-(8-fluoro-1-methyl-2,4-dioxo-1,2-dihydroquinazolin-3(4H)-yl)-2-methylphenyl)-2-(R)-(2-hydroxypropan-2-yl)-2,3,4,9-tetrahydro-1H-carbazole-8-carboxamide]
– | – | 240 nM | Cc1c(-c2ccc(C(N)=O)c3[nH]c4cc(C(C)(C)O)ccc4c23)cccc1-n1cnc2ccccc2c1=O [Comparative Example 75, 7-(2-Hydroxypropan-2-yl)-4-(2-methyl-3-(4-oxoquinazolin-3(4H)-yl)phenyl)-9H-carbazole-1-carboxamide, reference compound]
